Reference: patent EP0221719A2, “Novel cephalosporin derivatives, processes for their preparation and pharmaceutical compositions containing them” (BIOGAL GYOGYSZERGYAR, priority 1985, dated 1987)

Tested on: Salmonella typhi murium and Proteus vulgaris
Experiment: In vivo effectivity in artificially infected mice (protection test)
Settings: sc, 72 h, read-out: dose achieving a fully complete therapeutic effect

For `CCN1CCN(C(=O)N[C@@H](C(=O)N[C@@H]2C(=O)N3C(C(=O)O)=C(CSc4nnnn4C)CS[C@H]23)c2ccc(O)cc2)C(=O)C1=O` [Cefoperazone, 7-[D-(-)-α-(4-ethyl-2,3-dioxo-1-piperazinecarboxamido)-α-(4-hydroxyphenyl)-acetamido]-3-[[(1-methyl-1H-tetranol-5-yl)thio]methyl]-ceph-3-em-4-carboxylic acid, reference compound], the ED100 was 25 mg/kg.
